AlphaSeq binding of Ab-14 heavy chain variants to a spike HR2 peptide

Source: Engelhart et al. 2022 (doi:10.1038/s41597-022-01779-4), MIT Lincoln Laboratory and A-Alpha Bio; data file from the FLAb repository.

Binding partner: SARS-CoV-2 spike HR2 peptide, sequence PDVDLGDISGINAS.

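Library AAYL49 holds single substitutions and randomly drawn double and triple substitutions in the CDRs. The scFvs were displayed on barcoded MATa yeast, the peptide on MATalpha yeast. Pairs that bind mate more often; barcode pairs of the diploids are counted by sequencing. The ratio of observed to expected reads was calibrated, replicate by replicate, on BCL2-family standards whose Kd was known from biolayer interferometry. There are three technical replicates.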

Ab-14 is the parent antibody, in scFv form: VH, then the linker GGGGSGGGGSGGGGS, then VL. The light chain is unchanged in all variants.
VH: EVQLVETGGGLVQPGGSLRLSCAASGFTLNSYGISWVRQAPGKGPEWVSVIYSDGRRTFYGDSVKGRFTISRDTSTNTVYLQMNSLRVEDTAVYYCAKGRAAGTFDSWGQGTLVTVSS
VL: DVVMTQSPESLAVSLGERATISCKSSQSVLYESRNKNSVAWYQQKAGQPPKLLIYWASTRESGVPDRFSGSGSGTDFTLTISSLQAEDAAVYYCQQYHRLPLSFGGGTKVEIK

Each variant is given by its three heavy chain CDRs, as the data file delimits them; those of the parent are GFTLNSYGIS, VIYSDGRRTFYGDSVK, GRAAGTFDS.
Every variant below is changed at G99 of the VH (sequential numbering).
Values are log10 of the apparent Kd in nM; lower means stronger binding.
Averages over replicates are reported, and they cover detected replicates only.
"ND" marks a missing value. The strain was present, yet no cells mated with the target were sequenced in that replicate, which points to weak or no binding.
In this assay the parent's reference entry averaged 0.65; its copy inside this library read 4.11 (one replicate of three).

- GFTLNSYGIS | VIYSDGRRTFEGDSVP | QRAAGTFDS: ND, ND, ND
- GFTLNSYGIS | VIYSDGRRTFYGDSVK | YRAAGTFDS: 1.34, 1.66, 1.51 (mean 1.50)
- GFTLKSYGIS | VIYSDGRRTFYGDSVK | LRAAGTFVS: ND, ND, ND
- GFTLNSYGIS | HIKSDGRRTFYGDSVK | KRAAGTFDS: ND, 3.83, 5.70 (mean 4.77)
- GFTLNSYGIS | VIYSDGRRTFYGDCVK | SRAAGTFAS: ND, ND, ND
- GTTLNSYGIS | VIYSDGRRPFYGDSVK | KRAAGTFDS: ND, ND, ND
- GFTLNSDGIS | VIYSDGRRTFYGDSVK | LRVAGTFDS: ND, ND, ND
- GFTLNSYGIS | VLYSDGRRTFYGDSVK | TRAWGTFDS: ND, ND, 5.14
- GFTLNSYGIS | VIYSDGRRTFYGDSWK | NRAAGTFAS: ND, ND, ND
- GFTLNSYGIS | VIYSDGTRTFYGDSVA | IRAAGTFDS: ND, ND, ND
- GFTLNSYGIS | VIYSDGRRTFYGDIVK | AQAAGTFDS: ND, ND, ND
- GFTLNSYGIS | VIYSDVRRTFYGDSVK | ERAAGTFDS: ND, ND, ND
- NFTLNSYGIS | VIYSDGRRTFYGDSVK | QRAAGEFDS: ND, ND, ND
- GFTLNSYGIS | VIRSDGRRTFYGDSVK | HRAAGTFDS: ND, ND, ND
- GFTLNSYGIS | VIYSDGRRTFYGDSVK | MRAFGTFDS: ND, 5.17, ND
- GFTLNSYGIS | VIYSDGRRTFYGDSKK | WYAAGTFDS: ND, ND, ND
- GFTLNYYGIS | VIYSDGRGTFYGDSVK | NRAAGTFDS: ND, ND, ND
- GFTLNSYGIS | PIYSDGRRTFYGDSKK | HRAAGTFDS: ND, 4.26, 4.62 (mean 4.44)
- GFTLNSYGIS | VIYSDGRRTFYGDSVK | PRAAGTHRS: 0.65, 0.90, 0.71 (mean 0.76)
- GFTLNSYGIS | VIYSDGRETFYGDSVK | ARAAGSFDS: ND, 3.95, 4.73 (mean 4.34)
- PFTLNSDGIS | VIYSDGRRTFYGDSVK | HRAAGTFDS: 4.05, 2.83, ND (mean 3.44)
- GFTLNSYGID | VIYSDGRRTFYGDSVK | WRYAGTFDS: ND, ND, ND
- GFTLNSYGIS | VIYSDNRRTFYGDSVK | YRAASTFDS: ND, ND, ND
- GFTLNSYGIS | VIYSDGRRTFYGDSVK | NRAAGTFKS: 1.29, 1.43, 1.57 (mean 1.43)
- GFTLNSYGKS | VIYSDGARTFYGDSVK | DRAAGTFDS: ND, 2.64, ND
- GFTLNSYGIS | VIYSDGRAGFYGDSVK | DRAAGTFDS: ND, 3.89, ND
- GFTLNSYGCS | VIYSDGVRTFYGDSVK | SRAAGTFDS: ND, ND, ND
- WFTLNSYGIS | VIYSDGDRTFYGDSVK | WRAAGTFDS: ND, ND, ND
- GFTLNSYGIS | VIYSDGRRTFYGDSVK | IRAAGTFKS: ND, ND, ND
- GFTLNSYGIS | VIYSDRRMTFYGDSVK | TRAAGTFDS: ND, ND, 5.63
- GFTLNSYGIS | VIYSIGRRTFYGMSVK | CRAAGTFDS: 4.73, 5.01, ND (mean 4.87)
- GFTLNNYGIS | VIYSDKRRTFYGDSVK | PRAAGTFDS: ND, ND, ND
- GFTLNSYGAS | QIYSDGRRTFYGDSVK | LRAAGTFDS: ND, ND, ND

The opening 5 entries, copied out:

CDR-H1	CDR-H2	CDR-H3	log10 Kd, replicates	mean, log10 nM
GFTLNSYGIS	VIYSDGRRTFEGDSVP	QRAAGTFDS	ND, ND, ND	ND
GFTLNSYGIS	VIYSDGRRTFYGDSVK	YRAAGTFDS	1.34, 1.66, 1.51	1.50
GFTLKSYGIS	VIYSDGRRTFYGDSVK	LRAAGTFVS	ND, ND, ND	ND
GFTLNSYGIS	HIKSDGRRTFYGDSVK	KRAAGTFDS	ND, 3.83, 5.70	4.77
GFTLNSYGIS	VIYSDGRRTFYGDCVK	SRAAGTFAS	ND, ND, ND	ND

Nonspecific signal, from three strains lacking the peptide, appeared in 15% of pairings of library AAYL49, centred on 4.06 (5% of these signals below 2.83); values are not corrected for it.